Values of other authors in publication PMC6173196 (Journal of immunology (Baltimore, Md. : 1950), 2018).

Amino acid sequences for entries named in this document (tags omitted). Residues count along the entry.
UniProt P01589, 22-240, chain 1 of 3: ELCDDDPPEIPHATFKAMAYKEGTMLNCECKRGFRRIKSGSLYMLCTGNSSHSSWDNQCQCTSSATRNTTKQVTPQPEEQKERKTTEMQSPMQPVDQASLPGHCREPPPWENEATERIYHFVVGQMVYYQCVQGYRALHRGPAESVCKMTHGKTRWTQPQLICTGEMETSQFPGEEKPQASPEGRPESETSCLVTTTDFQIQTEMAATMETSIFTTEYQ
UniProt P60568, 21-153: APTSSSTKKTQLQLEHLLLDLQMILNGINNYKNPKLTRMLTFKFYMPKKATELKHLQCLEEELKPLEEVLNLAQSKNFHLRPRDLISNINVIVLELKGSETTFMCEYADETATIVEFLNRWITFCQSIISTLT

Target: IL-2 receptor αβγ (Homo sapiens) (UniProt P01589)
Conditions: cited from earlier work

Q: With IL-2 (from UniProt P60568) as the substance, how does the pKd read?
A: Its pKd is 10.00.

pKd: −log10 of the molar value.
